## Ab-14 light chain CDR variants: yeast mating affinities

The measurements come from Li et al. 2023 (doi:10.1038/s41467-023-39022-2) through the FLAb antibody collection.

The target is the same throughout: PDVDLGDISGINAS, from the HR2 region of SARS-CoV-2 spike.

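The starting antibody came from a phage panning campaign against this peptide. These sequences belong to a second round, designed from the earlier measurements on random variants of the parent. Several design methods are mixed in this list. The scFvs were displayed on barcoded MATa yeast, the peptide on MATalpha yeast. The frequency of each diploid, read from paired DNA barcodes, reflects how well the two displayed proteins bind. A regression on co-assayed BCL2-family reference pairs converts the normalised counts of each replicate to an apparent Kd. Mating was done six times.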

Parent scFv Ab-14: VH joined to VL by a (GGGGS)3 linker. Changes lie in the light chain CDRs alone.
VH: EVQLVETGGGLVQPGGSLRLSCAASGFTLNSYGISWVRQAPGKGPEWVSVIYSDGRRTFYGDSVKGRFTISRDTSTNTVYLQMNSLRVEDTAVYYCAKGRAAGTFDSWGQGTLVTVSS
VL: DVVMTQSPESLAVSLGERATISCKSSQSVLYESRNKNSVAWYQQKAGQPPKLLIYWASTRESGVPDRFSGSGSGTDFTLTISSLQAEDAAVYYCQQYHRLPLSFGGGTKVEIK

Each variant is given by its three light chain CDRs, as the data file delimits them; those of the parent are KSSQSVLYESRNKNSVA, WASTRES, QQYHRLPLS. Affinities are written as log10 Kd with Kd in nM; a lower number is a better binder. Replicates are averaged; those with no signal do not enter the mean. A pair that was not seen in any replicate is written "nd"; this usually means weak binding, but a binder can also be missed. The range of this assay differs from that of the first round, and the authors advise against merging the two. Background: pairings of all light chain designs with three empty control strains gave a value in 4% of cases (median 2.64, 5th percentile 1.59). Values in that range, when seen in few replicates, are hard to tell from nonspecific mating. Also given: how often the same scFv was detected with the empty control strains. The authors averaged sequences with at least three values out of six and counted those with two or fewer as poor binders.

1.50 (1 of 6 replicates; controls 0 of 18): KQRESVYYESFNKNSVA | WASTRES | QTYHRLPLS.
2.84 (3 of 6 replicates; controls 0 of 18): TLGQVTMVESYNKNSVA | QVSTRLE | QDYHRLPLS.
0.65 (6 of 6 replicates; controls 3 of 18): KLWAYLQGLERNMQNIA | DGIYRST | QQYDRLPLS.
1.05 (6 of 6 replicates; controls 1 of 18): KISGYLNKESKIKNSVA | EMVNRES | QQYDRLPLS.
0.24 (6 of 6 replicates; controls 1 of 18): KMAQGWEYESRWKNSVA | NASVRES | QQYHRLPLS.
0.40 (6 of 6 replicates; controls 0 of 18): KLEQSDLYESRNKQSVA | NASERER | QQYHRLPLS.
0.94 (6 of 6 replicates; controls 0 of 18): KLSQSELYESRNKNSVA | NASQRES | QQYHRLPLS.
1.76 (6 of 6 replicates; controls 1 of 18): MVSQLMWWGMHAKNSIA | EAQMRLN | QQYDRLPLF.
0.76 (5 of 6 replicates; controls 1 of 18): KLRQVTEYESFDKNSVA | QTETREN | QDYDRLPLS.
2.25 (5 of 6 replicates; controls 0 of 18): KQSQSVLYESRNKNTVA | DASTRES | QMYHWLPLS.
0.88 (6 of 6 replicates; controls 0 of 18): QIYQAMHTLSQMKDNVA | DVNERGN | QQYYRLPLS.
0.80 (6 of 6 replicates; controls 0 of 18): KLSNVTGHMSVSKNNVA | EMETRVN | QQYDRLPLS.
-0.03 (6 of 6 replicates; controls 0 of 18): KVSQSHLYESRNKNSVA | EASTRLS | QQYHRLPLS.
0.35 (6 of 6 replicates; controls 4 of 18): KLSNSKWYESRMKNQVA | NASTREM | QQYHRLPLS.
2.50 (4 of 6 replicates; controls 2 of 18): NLTAKQNQYDQNYSNVA | EATNSEQ | QQYKHLPLS.
0.95 (6 of 6 replicates; controls 0 of 18): SLEMFTGMLNMYASSIA | NATYLVQ | QQYYRLPIS.
1.76 (6 of 6 replicates; controls 2 of 18): TFDQMGEHKGMNTNSVA | AGNLVRI | QQYSRLPFS.
1.19 (6 of 6 replicates; controls 0 of 18): TISQSVNMTSHGRNSVA | QAEMREE | QQYDRLPLS.
0.56 (6 of 6 replicates; controls 0 of 18): KVLQSQEYESRNKNSVA | HASTRED | QQYHRLPLS.
0.02 (6 of 6 replicates; controls 2 of 18): KMSQSQLYETRNKNSVA | NMSTRES | QQYHRLPLS.
3.11 (2 of 6 replicates; controls 0 of 18): MIAQGLRGMGRNKNSVA | NAQTRES | QHYHRLPLS.
-0.03 (6 of 6 replicates; controls 2 of 18): KVSQSVLYESRVKNSVA | EASTRES | QQYHRLPLS.
0.80 (6 of 6 replicates; controls 2 of 18): MIAQGLRGVGRNKNSVA | NAQTREE | QHYHRLPLS.
1.66 (6 of 6 replicates; controls 0 of 18): QLHAYTQGFWRAMQNIA | DISYRVT | QQYGRLPLS.
0.46 (6 of 6 replicates; controls 0 of 18): KISQAYLYESRNKNSVA | QANHREQ | QQYHRLPLS.
-0.26 (6 of 6 replicates; controls 0 of 18): KCSQSVDFESRNKNSVA | DASTRES | QQYHRLPLS.
0.83 (6 of 6 replicates; controls 0 of 18): MLGESYGMMVQKKSSIA | DNSTRED | QQYDRLPLS.
1.45 (6 of 6 replicates; controls 0 of 18): MISQLYNMGQFAINSVA | QASERSE | QQYDRLPLQ.
1.96 (4 of 6 replicates; controls 0 of 18): KSSQDVLRESRNKNSVA | WGSTRES | MQYVRLPND.
0.33 (6 of 6 replicates; controls 0 of 18): KLSWSVPYEERNLNNVA | HGSTRCS | QQYHRLPLS.
-0.05 (6 of 6 replicates; controls 1 of 18): IMSQSVLMESRNKNSVA | DASTRES | QQYHRLPLS.
0.98 (6 of 6 replicates; controls 0 of 18): HLHTINYTEAIGTNSIA | DANLHVT | QQYFRLPIM.
nd (0 of 6 replicates; controls 0 of 18): KLGAWMYWQTEAKYAIA | QDEMRVH | QQYDRLPLM.
2.03 (2 of 6 replicates; controls 2 of 18): SLGLSTMLEEYVRNSVA | NNSTRED | QQYDRLPLS.
1.12 (6 of 6 replicates; controls 0 of 18): QLQLQPLFGANAQHSIA | DVSEKDM | QQYARLPLH.
nd (0 of 6 replicates; controls 0 of 18): KSRQSVFYESRNKNSVA | WASTRES | KQYHRLPLS.
0.01 (6 of 6 replicates; controls 1 of 18): KLRQSQLYESRNKNSVA | QASTRES | QQYHRLPLS.
0.31 (6 of 6 replicates; controls 0 of 18): MMSQMYEGLSTSKNPVA | QVSTREE | QQYHRLPLS.
1.39 (6 of 6 replicates; controls 0 of 18): KMSQSWWYESRMKWSVA | NASERES | QQYHRLPLS.
1.22 (6 of 6 replicates; controls 0 of 18): KMHTLMYTANIGENSVA | DANLHVD | QQYFRLPIS.
1.22 (6 of 6 replicates; controls 3 of 18): IISQSVLGENHNKNSVA | QTSERGS | QQYDRLPLS.
1.15 (6 of 6 replicates; controls 1 of 18): KISGYLQKESKNKNSVA | EMVNRES | QQYDRLPLS.
1.02 (6 of 6 replicates; controls 3 of 18): KLMNSLEAFKQWEDNVA | ETEHKVA | QQYYHLPLT.
-0.13 (6 of 6 replicates; controls 1 of 18): KSSQSVDIESRNKNSVA | DASTRES | QQYHRLPLS.

Extract of 2 entries:

The variant SLGLSTMLEEYVRNSVA | NNSTRED | QQYDRLPLS gave 2.03 (2 of 6 replicates; controls 2 of 18).
The variant TLGQVTMVESYNKNSVA | QVSTRLE | QDYHRLPLS gave 2.84 (3 of 6 replicates; controls 0 of 18).